# Measurements published in PubChem BioAssay AID624246 (National Center for Advancing Translational Sciences (NCATS), 2012).
# Amino acid sequences for entries named in this document (tags omitted).
# UniProt P11308, whole entry: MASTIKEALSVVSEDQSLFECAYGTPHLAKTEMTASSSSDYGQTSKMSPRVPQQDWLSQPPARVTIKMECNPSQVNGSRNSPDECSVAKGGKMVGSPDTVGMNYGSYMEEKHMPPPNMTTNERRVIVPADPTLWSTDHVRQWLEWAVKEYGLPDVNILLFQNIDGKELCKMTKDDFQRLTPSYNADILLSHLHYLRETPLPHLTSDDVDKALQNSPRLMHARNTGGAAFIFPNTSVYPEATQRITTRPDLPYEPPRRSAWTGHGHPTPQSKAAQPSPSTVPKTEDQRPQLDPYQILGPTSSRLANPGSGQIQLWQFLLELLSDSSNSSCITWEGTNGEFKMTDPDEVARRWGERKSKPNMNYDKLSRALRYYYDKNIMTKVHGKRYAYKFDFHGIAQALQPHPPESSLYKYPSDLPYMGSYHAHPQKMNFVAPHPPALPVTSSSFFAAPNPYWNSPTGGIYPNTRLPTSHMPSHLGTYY
# This is a selection; strong and weak results do not stand in their true shares. Some salts and complexes are drawn in separate pieces, as the source files them; their charges need not balance. The source made the active and inactive calls. Calls follow the shape of the dose curve; as a rule, active = well fitted inhibition curve with a large enough effect in the polarisation, with a control signal flat; inconclusive = small, poorly fitted or top-dose-only effect, or effect the other way, or a change in a side signal; inactive = no such curve, though single readings can be large or run the other way; the % refers to the polarisation.
# Target: Transcriptional regulator ERG (Homo sapiens) (UniProt P11308)
# Test: qHTS for Small Molecule Inhibitors of the ERG Ets/DNA interaction; also: % of control where 0% means no effect
# Conditions: fluorescence polarization, His-ERG Ets domain / labelled DNA; at 76.9 µM (top of the series) unless noted
# Description: The Ets family of proteins is a family of ~30 conserved transcription factors defined by the presence of an ~85 amino acid domain referred to as the Ets domain, which mediates sequence-specific DNA binding to a core DNA element GGAA/T.The Ets family member ERG has been linked to several neoplasms. […] More extensive studies of the effects of over-expression of ERG in prostate cells have recently been carried out and have shown that over-expression of ERG results in increased invasion. […] We will carry out a high throughout screen to identify inhibitors of the interaction between ERG and DNA using a fluorescence polarization (FP) assay with a His-tagged ERG Ets domain and fluorescently-labeled DNA probes to develop small molecule inhibitors of this interaction as probes to test this hypothesis and lay the groundwork for the development of targeted therapies against ERG. NIH Molecular Libraries Probe Production Network [MLPCN] NIH Chemical Genomics Center [NCGC] Grant: NS066464 PI Name: John Bushweller, University of Virgina
# 1.5 ul of protein solution (1 uM ERG domain in 300mM KCl, 50mM Tris-HCl, 1mM EDTA, 1mM DTT, pH 7.5); 20 nl Control plate and compound library plate; 1.5 ul mixture of 5 nM Fluorescein-DNA and 100nM Texas-615-DNA solution in same buffer as above solution; measure fluorescence polarization sequentially for fluorescein (Excitation = 480 nm, Emission = 535s, 535p nm) and Texas red (Excitation = 555 nm, Emission = 632s, 632p nm).
row,SMILES,"FP activity, negative = inhibition"
1,COc1cc(C(=O)NCC2(N3CCOCC3)CCCCC2)cc(OC)c1C,inactive: -3.45%
2,O=C(NCC1(N2CCOCC2)CCCCC1)c1cc(Br)ccc1Cl,inactive: 2.16%
3,COc1ccc(C(=O)NCC2(N3CCOCC3)CCCCC2)cc1OC,inactive: -3.02%
4,CCOC(=O)N1CCC(Nc2ccc(C)cc2)CC1,inactive: 2.33%
5,N/C(=N\O)c1c(N)no[n+]1[O-],inactive: -1.89%
6,CCc1cc(C(=O)NCC2(N3CCCCC3)CCCCC2)sc1C,inactive: -12.4%
7,O=C(OC1CN2CCC1CC2)C1c2ccccc2C=Cc2ccccc21 (centres undefined),inactive: -8.67%
8,O=C(O)c1cccc(Nc2c([N+](=O)[O-])cc([N+](=O)[O-])cc2[N+](=O)[O-])c1,inactive: -10%
9,O=C(NCC1(N2CCOCC2)CCCCC1)c1ccccc1[N+](=O)[O-],inactive: 5.88%
10,N#Cc1ccc(C(=O)NCC2(N3CCCCC3)CCCCC2)cc1,inactive: 15.2%
11,O=C(NCC1(N2CCOCC2)CCCCC1)c1ccc([N+](=O)[O-])cc1,inactive: -0.101%
12,CC(C)(C)OC(=O)N1CCC(N(C(=O)c2ccccc2)c2ccc(Cl)cc2)CC1,inactive: 5.22%
13,CCOC(=O)C(CC)C1=NC(C)(C)Cc2ccccc21.O=[N+]([O-])c1cc([N+](=O)[O-])c(O)c([N+](=O)[O-])c1 (centres undefined),inactive: -3.62%
14,CN(C)C1(CNC(=O)c2cccc(C#N)c2)CCCCC1,inactive: 9.06%
15,c1ccc(CN2CCC(Nc3ccccc3)CC2)cc1,inactive: 7.37%
16,Cc1cc(N(CCCl)CCCl)ccc1C=O,inactive: -2.58%
17,O=C(NCC1(N2CCOCC2)CCCCC1)c1ccccc1,inactive: -3.8%
18,CCCN1CCC(Nc2cc(OC)cc(OC)c2)CC1,inactive: -12.9%
19,CN(C)C1(CNC(=O)c2ccc(C(C)(C)C)cc2)CCCCC1,inactive: 2.36%
20,CC(=O)N(c1ccccc1)C1CCNCC1,inactive: -10.4%
21,COc1cc(OC)cc(C(=O)NCC2(N3CCCCC3)CCCCC2)c1,inactive: 16.6%
22,Cc1ccc(C(=O)NCC2(N3CCCCC3)CCCCC2)o1,inactive: -1.54%
23,Cc1ccc(NC2(C#N)CCN(Cc3ccccc3)CC2)cc1,inactive: 7.02%
24,Cc1ccccc1NC1(C#N)CCN(Cc2ccccc2)CC1,inactive: 5.13%

row,SMILES,"FP activity, negative = inhibition"
1,CCN1CCC(Nc2cccc(F)c2)CC1,inactive: -8.92%
2,Cc1ccccc1C(=O)NCC1(N(C)C)CCCCC1,inactive: -0.578%
3,O=C(NCC1(N2CCCCC2)CCCCC1)c1ccco1,inactive: 4.18%
4,CC(C)(C)c1ccc(C(=O)NCC2(N3CCOCC3)CCCCC2)cc1,inactive: -8.06%
5,CN(C)c1ccc(C(=O)NCC2(N3CCCCC3)CCCCC2)cc1,inactive: 1.21%
6,Cn1c(=O)[nH]cc(N(CCCl)CCCl)c1=O,inactive: 5.68%
7,CCOc1ncccc1C(=O)NCC1(N2CCOCC2)CCCCC1,inactive: 0.733%
8,CN1CCC(Nc2ccc(F)c(Cl)c2)CC1,inactive: -2.14%
9,CC(C)(C)OC(=O)N1CCC(Nc2ccccc2)CC1,inactive: -4.33%
10,O=C(O)C1(Nc2ccccc2)CCN(Cc2ccccc2)CC1,inactive: 0.0946%
11,CCCOc1ccc(C(=O)NCC2(N(C)C)CCCCC2)cc1,inactive: 2.91%
12,COc1cccc(C(=O)N(c2cc(C)cc(C)c2)C2CCN(C(=O)OC(C)(C)C)CC2)c1,inactive: -16.3%
13,COc1cc(OC)cc(C(=O)NCC2(N3CCOCC3)CCCCC2)c1,inactive: 1.2%
14,COc1cc(C(=O)NCC2(N3CCOCC3)CCCCC2)cc(OC)c1OC,inactive: 3.59%
15,CCC(CO)(C(=O)OC1CN2CCC1CC2)c1ccccc1 (centres undefined),inactive: -5.77%
16,CN1CCC(Nc2ccc(Cl)cc2)CC1,inactive: -6.82%
17,COc1ccc(C(=O)NCC2(N3CCCCC3)CCCCC2)cc1,inactive: -7.56%
18,CC(C)(C)OC(=O)N1CCC(N(C(=O)c2ccccc2)c2ccc(F)cc2)CC1,inactive: -3.65%
19,COc1ccc(C(=O)NCC2(N3CCCCC3)CCCCC2)c(OC)c1OC,inactive: 4.62%
20,O=C(NCC1(N2CCCCC2)CCCCC1)c1ccc(=O)[nH]c1,inactive: -8.68%
21,O=C(NCC1(N2CCCCC2)CCCCC1)c1cccs1,inactive: -5.24%
22,CSc1ccccc1C(=O)NCC1(N2CCCCC2)CCCCC1,inactive: 8.03%
23,Cc1cccc(NC2(C#N)CCN(Cc3ccccc3)CC2)c1,inactive: -14.4%
24,O=C(NCC1(N2CCCCC2)CCCCC1)c1ccc(Cl)nc1,inactive: -3.37%

row,SMILES,"FP activity, negative = inhibition"
1,Cc1cc(C)cc(N(C(=O)c2ccccc2)C2CCN(C(=O)OC(C)(C)C)CC2)c1,inactive: 8.43%
2,O=C(NCC1(N2CCOCC2)CCCCC1)c1cc2ccccc2o1,inactive: 0.205%
3,N#CC1(Nc2ccccc2)CCN(Cc2ccccc2)CC1,inactive: 0.227%
4,O=C(NCC1(N2CCCCC2)CCCCC1)c1ccc(Cl)s1,inactive: -7.9% [at 15.4 µM]
5,O=C(OC1CN2CCC1CC2)C1c2ccccc2Oc2ccccc21 (centres undefined),inactive: 3.78%
6,COc1ccc(Cl)cc1C(=O)NCC1(N2CCOCC2)CCCCC1,inactive: -2.6%
7,O=C1C(O)=C([N+](=O)[O-])C(=O)C(O)=C1[N+](=O)[O-],inactive: -16.1%
8,CCOC(=O)N1CCC(Nc2ccc(OC)cc2)CC1,inactive: 14.5%
9,O=C(NCC1(N2CCOCC2)CCCCC1)c1ccc(Cl)cc1,inactive: -6.6%
10,O=C1CCN(Cc2ccccc2)CC1,inactive: -13.5%
11,CCOc1ccc(C)cc1CN(CCCl)CCCl,inactive: 13.7%
12,COc1ccccc1C(=O)NCC1(N2CCOCC2)CCCCC1,inactive: -7.62%
13,CCCCOc1ccc(C(=O)NCC2(N3CCOCC3)CCCCC2)cc1,inactive: 0.415%
14,O=P1(N(CCCl)CCCl)SCCCS1,inactive: 107%
15,O=C(NCC1(N2CCCCC2)CCCCC1)c1ccc(F)cc1,inactive: 1.66%
16,CCOC(=O)N1CCC(Nc2ccc(F)cc2)CC1,inactive: 10.9%
17,COc1ccc(NC2CCN(CCc3ccccc3)CC2)c(OC)c1,inactive: -2.45%
18,CCOC(=O)N1CCC(Nc2cccc(C)c2)CC1,inactive: -3.61%
19,COc1cc(C(=O)NCC2(N(C)C)CCCCC2)ccc1OC(F)F,inactive: -6.7%
20,O=C(NCC1(N2CCCCC2)CCCCC1)c1ccc(OC(F)F)cc1,inactive: 12.6%
21,CCN1CCC(Nc2ccc(Cl)cc2)CC1,inactive: 1.31%
22,N#CC1(Nc2ccccc2)CCN(CCc2ccccc2)CC1,inactive: -5.52%
23,CSc1ccc(C(=O)NCC2(N3CCOCC3)CCCCC2)cc1,inactive: -7.87%
24,O=C(NCC1(N2CCCCC2)CCCCC1)c1cccc([N+](=O)[O-])c1,inactive: 4.66%

row,SMILES,"FP activity, negative = inhibition"
1,CCOc1ccc(C(=O)NCC2(N3CCOCC3)CCCCC2)cc1,inactive: -4.86%
2,O=[N+]([O-])c1cc([N+](=O)[O-])c(NCC2CCS(=O)(=O)C2)c([N+](=O)[O-])c1 (centres undefined),inactive: 1.88%
3,O=C(NCC1(N2CCCCC2)CCCCC1)c1cccc(C(F)(F)F)c1,inactive: -2.77%
4,CCCOc1cccc(C(=O)NCC2(N3CCOCC3)CCCCC2)c1,inactive: 1.14%
5,O=C(NCC1(N2CCOCC2)CCCCC1)c1cc(=O)[nH]c2ccccc12,inactive: -0.343%
6,COc1cc(C(=O)NCC2(N3CCCCC3)CCCCC2)ccc1OC(F)F,inactive: -12.4%
7,CC(C)c1ccc(C(=O)NCC2(N3CCOCC3)CCCCC2)cc1,inactive: 16.4%
8,COc1ccc(NC2CCN(C(=O)OC(C)(C)C)CC2)cc1,inactive: 6.79%
9,CN1CCN(CCOC(=O)C(O)(c2ccccc2)c2ccccc2)CC1,inactive: -3.21%
10,CC(C)c1ccc(NC2CCN(C(=O)OC(C)(C)C)CC2)cc1,inactive: -2.57%
11,COc1ccc(CN(CCCl)CCCl)cc1Cl,inactive: 11.4%
12,CN(C)c1cccc(C(=O)NCC2(N3CCCCC3)CCCCC2)c1,inactive: -5.13%
13,O=[N+]([O-])c1cc([N+](=O)[O-])c(OC2CCCCC2O)c([N+](=O)[O-])c1 (centres undefined),inactive: 2.21%
14,COc1cc(OC)c(C(=O)NCC2(N(C)C)CCCCC2)cc1OC,inactive: -1.43%
15,O=C(NCC1(N2CCOCC2)CCCCC1)c1cc(F)c(F)cc1Cl,inactive: -3.38%
16,O=C(OC1CN2CCC1CC2)c1ccc([N+](=O)[O-])cc1 (centres undefined),inactive: -2.4%
17,CN1CCC(Nc2cccc(F)c2)CC1,inactive: 0.485%
18,COc1ccc2c(c1O)-c1c(O)c(OC)cc3c1[C@H](C2)[N+](C)(C)CC3.O=[N+]([O-])c1cc([N+](=O)[O-])c([O-])c([N+](=O)[O-])c1[O-],inactive: -4.63%
19,O=C(NCC1(N2CCCCC2)CCCCC1)c1cncc(Br)c1,inactive: 1.69%
20,CCCCOc1ccccc1C(=O)NCC1(N2CCOCC2)CCCCC1,inactive: -0.999%
21,O=C(NCC1(N2CCOCC2)CCCCC1)c1ccccc1Br,inactive: -1.33%
22,CCCOc1ccc(C(=O)NCC2(N(C)C)CCCCC2)cc1OC,inactive: 3.62%
